Protein sequences, listed by entry. Tags and fused reporters are not part of them.
UniProt P03372, whole entry: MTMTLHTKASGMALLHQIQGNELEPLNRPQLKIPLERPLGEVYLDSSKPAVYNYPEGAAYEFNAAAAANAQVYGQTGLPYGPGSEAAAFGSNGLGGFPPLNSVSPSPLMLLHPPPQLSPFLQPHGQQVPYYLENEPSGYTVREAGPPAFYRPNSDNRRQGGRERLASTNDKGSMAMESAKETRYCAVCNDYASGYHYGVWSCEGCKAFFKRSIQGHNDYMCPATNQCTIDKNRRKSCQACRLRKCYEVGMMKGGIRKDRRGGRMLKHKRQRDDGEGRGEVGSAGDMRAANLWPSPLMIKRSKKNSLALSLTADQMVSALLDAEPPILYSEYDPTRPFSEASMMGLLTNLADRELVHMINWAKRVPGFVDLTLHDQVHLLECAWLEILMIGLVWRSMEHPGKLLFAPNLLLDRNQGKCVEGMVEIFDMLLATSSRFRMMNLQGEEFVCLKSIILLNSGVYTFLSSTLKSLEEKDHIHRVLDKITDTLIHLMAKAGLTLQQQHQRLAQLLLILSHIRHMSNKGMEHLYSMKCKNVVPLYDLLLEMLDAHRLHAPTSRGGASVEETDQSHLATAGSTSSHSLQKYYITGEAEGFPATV

In patent publication US7196119B2 (dated 2007):

Target: full length (ER)α (Homo sapiens, UniProt P03372)
Details: percentage of the potency of 17β-estradiol (IC50 estradiol / IC50 ligand x 100)

Relative binding affinity (ER)α: 5%
SMILES: CC/C(=C(\c1ccccc1)c1ccc(/C=C/C(=O)O)cc1)c1ccccc1 [GW-5638]
